Inhibition and Activity data for eleven molecules are collected here from ChEMBL document CHEMBL3352357, “Synthesis and pharmacological evaluation of 5-pyrrolidinylquinoxalines as a novel class of peripherally restricted κ-opioid receptor agonists” (J Med Chem, 2014).

Amino acid sequences for entries named in this document (tags omitted). A change or cut given only in a name is not applied to a line headed by its entry.
UniProt Q60492, whole entry, looked up: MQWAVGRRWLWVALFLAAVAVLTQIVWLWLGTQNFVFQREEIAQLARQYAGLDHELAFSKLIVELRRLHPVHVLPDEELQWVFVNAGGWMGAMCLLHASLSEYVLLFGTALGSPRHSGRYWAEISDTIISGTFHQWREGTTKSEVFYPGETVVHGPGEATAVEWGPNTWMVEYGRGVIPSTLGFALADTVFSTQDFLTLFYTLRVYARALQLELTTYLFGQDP
UniProt P41143, whole entry, looked up: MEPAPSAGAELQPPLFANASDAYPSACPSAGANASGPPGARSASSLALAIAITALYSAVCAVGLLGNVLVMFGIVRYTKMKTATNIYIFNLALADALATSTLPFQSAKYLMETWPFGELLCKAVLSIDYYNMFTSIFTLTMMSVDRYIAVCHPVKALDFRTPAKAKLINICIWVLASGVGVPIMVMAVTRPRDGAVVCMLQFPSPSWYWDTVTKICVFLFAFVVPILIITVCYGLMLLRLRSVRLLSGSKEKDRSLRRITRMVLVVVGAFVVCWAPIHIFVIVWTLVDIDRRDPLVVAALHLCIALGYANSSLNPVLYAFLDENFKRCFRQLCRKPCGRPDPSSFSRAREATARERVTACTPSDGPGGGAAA
UniProt P35372, whole entry, looked up: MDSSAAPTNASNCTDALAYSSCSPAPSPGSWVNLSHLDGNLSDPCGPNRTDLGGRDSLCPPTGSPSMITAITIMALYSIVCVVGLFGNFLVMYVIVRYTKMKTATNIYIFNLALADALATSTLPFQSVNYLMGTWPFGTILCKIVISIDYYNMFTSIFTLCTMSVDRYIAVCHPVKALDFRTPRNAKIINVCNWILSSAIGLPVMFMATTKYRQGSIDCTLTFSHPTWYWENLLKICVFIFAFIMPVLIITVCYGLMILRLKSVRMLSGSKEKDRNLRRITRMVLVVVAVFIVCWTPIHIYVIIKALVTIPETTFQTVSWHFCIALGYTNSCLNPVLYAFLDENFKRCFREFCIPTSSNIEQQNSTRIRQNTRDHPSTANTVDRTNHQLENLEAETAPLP
UniProt P41144: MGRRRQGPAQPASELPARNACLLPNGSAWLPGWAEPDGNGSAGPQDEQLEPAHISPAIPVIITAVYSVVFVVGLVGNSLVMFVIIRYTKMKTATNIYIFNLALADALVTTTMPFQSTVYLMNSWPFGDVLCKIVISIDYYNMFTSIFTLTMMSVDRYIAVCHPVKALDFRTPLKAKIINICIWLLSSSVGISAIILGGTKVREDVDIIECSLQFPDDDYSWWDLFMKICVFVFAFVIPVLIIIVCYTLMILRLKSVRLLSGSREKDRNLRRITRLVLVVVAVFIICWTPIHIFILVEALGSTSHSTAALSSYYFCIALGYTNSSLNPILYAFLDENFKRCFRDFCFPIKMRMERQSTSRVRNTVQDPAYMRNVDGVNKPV
UniProt P41145: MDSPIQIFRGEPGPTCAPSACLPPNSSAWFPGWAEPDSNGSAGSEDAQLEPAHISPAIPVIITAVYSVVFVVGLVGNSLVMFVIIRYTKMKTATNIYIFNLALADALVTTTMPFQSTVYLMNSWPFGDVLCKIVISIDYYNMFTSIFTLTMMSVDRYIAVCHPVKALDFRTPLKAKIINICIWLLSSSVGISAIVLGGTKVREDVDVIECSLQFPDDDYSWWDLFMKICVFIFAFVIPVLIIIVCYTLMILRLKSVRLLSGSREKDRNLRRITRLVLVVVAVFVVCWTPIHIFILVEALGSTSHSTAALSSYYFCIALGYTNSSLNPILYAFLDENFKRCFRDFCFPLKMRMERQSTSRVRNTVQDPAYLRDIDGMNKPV

The source made the active and inactive calls. No cut-off for these calls is given here. Some results are limits rather than exact numbers.

The species entered for one assay is Cavia porcellus. Description: Displacement of [3H]-(+)-MK-801 from NMDA receptor PCP binding site in guinea pig brain cortex membranes at 10 uM. The class given is cell membranes.
The target of assay [1] is Sigma non-opioid intracellular receptor 1 (Cavia porcellus) (UniProt Q60492). Description: Displacement of [3H]-(+)-pentazocine from sigma-1 receptor in guinea pig brain cortex membranes at 10 uM. It is filed as cell membranes. The settings on record: Cerebral cortex.
The target in assay [2] is Delta-type opioid receptor (Homo sapiens, UniProt P41143). Description: Displacement of [3H]-deltorphine from human delta opioid receptor expressed in CHO-K1 cells at 10 uM by scintillation counting analysis. The class given is cell-based.
For assay [3], the system named is Mus musculus. Put plainly: Analgesic activity in male NMRI mouse assessed as inhibition of mustard oil-induced visceral pain at 21.5 mg/kg, iv after 5 mins challenged with mustard oil measured after 2 to 12 mins.
Assay [4] relates to Mus musculus. Put plainly: Analgesic activity in male NMRI mouse assessed as 16 mN von frey filaments-induced hyperalgesia at 1 to 10 mg/kg, iv after 5 mins challenged with mustard oil measured after 20 to 40 mins.
Assay [5] in a line: Displacement of [3H]-DTG from sigma-2 receptor in rat liver membrane at 10 uM in presence of (+)-pentazocine. It is filed as cell membranes.
For assay [6], the system named is Mus musculus. Put plainly: Analgesic activity in male iv dosed NMRI mouse assessed as inhibition of mustard oil-induced spontaneous pain response treated after 5 mins challenged with mustard oil measured after 2 to 12 mins.
In assay [7] the test system is Mus musculus. Put plainly: Analgesic activity in male NMRI mouse assessed as 1 mN von frey filaments-induced referred allodynia at 1 to 10 mg/kg, iv after 5 mins challenged with mustard oil measured after 20 to 40 mins.
The target of the next assay is Mu-type opioid receptor (Homo sapiens, UniProt P35372). Put plainly: Displacement of [3H]-naloxone from human mu opioid receptor expressed in CHO-K1 cells at 10 uM by scintillation counting analysis. The class given is cell-based.
Assay [8] concerns the target Kappa-type opioid receptor (Cavia porcellus) (UniProt P41144). Put plainly: Displacement of [3H]Cl-977 from kappa opioid receptor in guinea pig brain membranes at 10 uM after 2 hrs by scintillation counting analysis. Particulars: Membrane.
Assay [9] concerns the target Kappa-type opioid receptor (Homo sapiens, UniProt P41145). Description: Agonist activity at human kappa opioid receptor expressed in HEK-293 cells assessed as stimulation of [35S]-GTPgammaS binding at 1 uM after 30 mins by liquid scintillation counting analysis. The class given is functional, cell-based. Particulars: HEK293. The method, boiled down:
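Membranes from HEK 293 cells expressing human κ receptor. [35S]GTPγS binding was run for 30 min at 30 °C with 1.00% DMSO vehicle. Bound [35S]GTPγS was quantified. Compounds giving under 50% agonist activity at 1 μM were scored not active.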

As to `CCOC(=O)N1CCN(C(=O)Cc2ccc(Cl)c(Cl)c2)C2C(N3CCCC3)CCCC21` (stereo not given), the inhibition in the assay filed under Cavia porcellus is 0%; in assay [1], 0%; in assay [2] it was 32%.
Turning to `CN1CCN(C(=O)Cc2ccc(Cl)c(Cl)c2)C2C1CCCC2N1CCC(O)C1` (stereo not given), in assay [2], the inhibition was found to be 27%.
Consider `O=C(Cc1ccc(Cl)c(Cl)c1)N1CCNC2CCCC(N3CCCC3)C21` (racemic), for which, in the assay with Mus musculus [3], the inhibition entry is “Active”. The inhibition in assay [1] was 3%; in assay [2], 10%.
Take `O=C(Cc1ccc(Cl)c(Cl)c1)N1CCNC2CCCC(N3CCC(O)C3)C21` (stereo not given): the outcome in the assay on Mus musculus [4] and with Mus musculus [7] was inactive. For the same molecule, the inhibition was 0% in assay [5], 4% in [1], 0% in assay [2] and “Dose-dependent effect” with Mus musculus [6].
On to `CC(=O)N1CCN(C(=O)Cc2ccc(Cl)c(Cl)c2)C2C(N3CCCC3)CCCC21` (stereo not given), for which the inhibition in assay [5] was 0%; in the assay listed under Cavia porcellus, 0%; in assay [1], 24%; in assay [2], 0%.
In turn, `O=C(Cc1ccc(Cl)c(Cl)c1)N1CCN(Cc2ccccc2)[C@@H]2CCC[C@H](N3CCCC3)[C@H]21` registered an inhibition in [2] of 39%.
In the case of `CCC(=O)N1CCN(C(=O)Cc2ccc(Cl)c(Cl)c2)C2C(N3CCCC3)CCCC21` (stereo not given), in assay [5], the inhibition was found to be 0%.
Take `COC(=O)N1CCN(C(=O)Cc2ccc(Cl)c(Cl)c2)[C@H]2[C@H]1CCC[C@@H]2N1CCCC1`: the inhibition in assay [5] worked out at 0%.
As to `O=C(O)CCC(=O)N1CCN(C(=O)Cc2ccc(Cl)c(Cl)c2)C2C(N3CCCC3)CCCC21` (stereo not given), the inhibition came to 0% in the assay listed under Cavia porcellus; 31% on Mu-type opioid receptor; 0% in assay [1]; 45% in assay [8]; 21% in assay [2].
As to `CN1CCN(C(=O)Cc2ccc(Cl)c(Cl)c2)C2C1CCCC2N1CCCC1` (stereo not given), the results for the inhibition in assay [5], in assay [1] and in [2] were 3%, 3% and 16%, respectively.
For the molecule `O=C(O)CC(=O)N1CCN(C(=O)Cc2ccc(Cl)c(Cl)c2)C2C(N3CCCC3)CCCC21` (stereo not given), the inhibition in [5] stood at 4%; in the assay listed under Cavia porcellus it was 18%; at Mu-type opioid receptor it was 19%; in assay [1], 0%; in [8] it was 41%; in assay [2], 7%. For the same molecule, the Activity in [9] was under 50%.
